Activation data for 100 compounds are collected here from PubChem BioAssay AID493131 (Broad Institute, 2011).

By UniProt entry, the sequences of proteins in these tests, tags left out. Where a name states a change or a piece, a line headed by the entry shows the natural chain unless it says otherwise.
UniProt P13346: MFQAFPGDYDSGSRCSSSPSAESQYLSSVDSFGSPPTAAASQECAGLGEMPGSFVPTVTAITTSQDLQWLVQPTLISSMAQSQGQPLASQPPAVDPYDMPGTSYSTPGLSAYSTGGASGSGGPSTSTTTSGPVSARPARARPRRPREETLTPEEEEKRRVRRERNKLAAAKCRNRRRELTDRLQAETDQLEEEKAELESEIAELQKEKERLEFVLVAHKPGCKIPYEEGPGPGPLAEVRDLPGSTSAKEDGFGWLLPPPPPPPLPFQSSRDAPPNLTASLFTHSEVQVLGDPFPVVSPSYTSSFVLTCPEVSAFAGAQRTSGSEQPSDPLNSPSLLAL

The list shows a part of the results, in another mix than the full data. Active and inactive are the calls of the source.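 The calls were made as follows: active = mean activation above about 17%, with every replicate also reaching it (limit read from the data, passing the limit was not always enough); inconclusive = only one of the two conditions met; inactive = the rest.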

For this test, the target named is Protein FosB (Mus musculus) (UniProt P13346). Kind of test: activators of delta FosB homodimer, primary screen, biochemical, fluorescence polarization, TAMRA-CDK5 oligo, single point (AID 493131).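 Also: fluorescence polarization rise as delta FosB binds a TAMRA Cdk5 AP-1 oligo.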 Particulars: purified delta FosB, at 25 µM, stronger effect = higher value, percent of positive-control signal above neutral wells. Background: In fluorescence polarisation assays a small probe gives low polarisation when free and higher when bound to something large.
Consider `O=C(OC1CN2CCC1CC2)c1cccc([N+](=O)[O-])c1` (stereo not given), for which the activation is inactive: 0.201%.
In the case of `CCOC(=O)c1ccc(NC(=O)C(C)(CCl)SC)cc1` (stereo not given) it was inactive: 0.168%; in that of `CCC(C)N(CC(C)C)C(=S)SC(NC(C)=O)C(Cl)(Cl)Cl` (stereo not given), inactive: -0.823%.
The value for `COP1(=S)c2c(C)nn(CCC#N)c2N=C(c2ccc(F)cc2)N1C` (stereo not given) was inactive: -7.15%; that for `O=C(Nc1ccncc1[N+](=O)[O-])c1ccc([N+](=O)[O-])cc1[N+](=O)[O-]` was inactive: 7.78%.
In the case of `O=C(COc1ccccc1)OC1CN2CCC1CC2` (stereo not given) it was inactive: 2.19%; in that of `CCOC(=O)Nc1cccc([As](=O)(O)O)c1`, inactive: -2.56%.
Take `O=P(Nc1ccccn1)(c1cccc2ccccc12)c1cccc2ccccc12`: the activation was inactive: -1.18%.
In the case of `Cc1cc(SC(NC=O)C(Cl)(Cl)Cl)ncn1` (stereo not given) it was inactive: -9.44%.
The value for `O=[N+]([O-])c1ccc(Nc2ccc(Oc3ccc([N+](=O)[O-])cc3[N+](=O)[O-])cc2)c([N+](=O)[O-])c1` was inactive: -3.82%.
In the case of `CCOC(=O)Nc1ccc([As](=O)(O)O)c(O)c1` it was inactive: -4.7%; in that of `CC1CCNP(=O)(N(CCCl)CCCl)O1` (stereo not given), inactive: -4.92%; in that of `Cc1cc(SC(NC(=O)c2ccccc2)C(Cl)(Cl)Cl)nc(C(C)C)n1` (stereo not given), inactive: -2.89%.
On to `CCCCOc1ccc(C(=O)NCC2(N3CCCCC3)CCCCC2)cc1OC`, for which the activation is inactive: -1.38%.
In the case of `ClCCSc1nnc(-c2cccnc2)o1` it was inactive: -4.11%.
The value for `CC(C)c1ccc(OP(=O)(Nc2ccccn2)Oc2ccccc2F)cc1` (stereo not given) was inactive: -10.4%; that for `COC(=O)C1(C)COP(=O)(N2CCCCCC2)OC1` (stereo not given) was inactive: -6.09%; that for `O=[N+]([O-])c1cc([N+](=O)[O-])c(-c2ccn[nH]2)s1` was inactive: -8.03%.
The value for `O=C(OC1CN2CCC1CC2)c1cccc2[nH]cnc12` (stereo not given) was inactive: 6.42%; that for `CCN(CC)C(=S)SC(NC=O)C(Cl)(Cl)Cl` (stereo not given) was inactive: 0.536%.
With `CC(C)NC(=O)NP(=O)(Oc1ccccc1)Oc1ccccc1`, the activation was inactive: -2.76%.
`COc1cc(C(=O)NCC2(N3CCOCC3)CCCCC2)ccc1OCC(C)C`: the activation was inactive: -12%.
In the case of `O=[N+]([O-])c1ccc(-c2cc([N+](=O)[O-])c(O)c([N+](=O)[O-])c2)cc1` it was inactive: -3.09%.
In the case of `C[As](=O)(O)c1cccc(C(=O)O)c1` it was inactive: 4.24%.
In the case of `O=[As](O)(c1ccc(O)cc1)c1ccccc1O` it was inactive: -7.85%.
Turning to `Cc1ccc(OP(=O)(Nc2ccc([N+](=O)[O-])cn2)Oc2ccc(C)cc2)cc1`, the activation is inactive: -15.4%.
`Cc1ccc2nc3c(c(C)c2c1)CC(C(Cl)Cl)S3` (stereo not given): the activation was inactive: -12.6%.
In the case of `O=[N+]([O-])c1cc(Oc2ccc([N+](=O)[O-])cc2C(F)(F)F)cc([N+](=O)[O-])c1` it was inactive: 6.07%.
As for `COc1ccc(N/C(=N/P(=O)(N2CCOCC2)N2CCOCC2)N2CCOCC2)cc1`, the activation was inactive: 4.82%.
In the case of `Cc1c2c(nc3ccccc13)SC(C(Cl)Cl)C2` (stereo not given) it was inactive: -12.3%.
Regarding `Cc1cc(=O)[nH]c(N[N+](=O)[O-])n1`, the activation is inactive: -5.55%.
The value for `O=C(OC1CN2CCC1CC2)C12CC3CC(CC(C3)C1)C2` (stereo not given) was inactive: -2.65%; that for `O=P1(N(CCCl)CCCl)OCCCN1CCCl` (stereo not given) was inactive: 6.93%.
The value for `O=P1(N(CCCl)CCCl)Nc2ccccc2N1` was inactive: -1.13%.
In the case of `COc1cc(I)ccc1[As](=O)(O)O` it was inactive: -4.63%; in that of `COc1ccc2nc(NP(=O)(c3ccccc3)c3ccccc3)sc2c1`, inactive: -11%; in that of `Nc1cccc2c([As](=O)(O)O)cccc12`, inactive: -30.7%.
For `Cc1ccc(NCCc2c([N+](=O)[O-])cc([N+](=O)[O-])cc2[N+](=O)[O-])cc1`, the activation was inactive: -3.17%.
As for `CCCOP(=S)(Nc1nc(N)cc(=O)[nH]1)OCCC`, the activation is inactive: -3.34%.
Turning to `CCOP(=O)(Nc1cccc2ccccc12)OCC`, the activation is inactive: 1.17%.
For `COc1cc(C2NCCC3(OCCO3)C2(C)C)cc(OC)c1OC` (stereo not given), the activation is inactive: -7.52%.
With `O=C(OC1CN2CCC1CC2)c1ccc(Cl)cc1` (stereo not given), the activation is inactive: 2.52%.
In the case of `CS(=O)(=O)c1ccc(Cl)c(NC(=O)COC(=O)C(O)(c2ccccc2)c2ccccc2)c1`, the activation was inactive: -6.16%.
The value for `COc1cc(C(=O)NCC2(N3CCOCC3)CCCCC2)cc(Cl)c1OC(C)C` was inactive: -10.5%.
In the case of `O=[As](O)(O)c1cccnc1` it was inactive: -1.79%.
In the case of `O=[As](O)(c1cccc(O)c1)c1cccc(O)c1` it was inactive: -5.37%.
For `Cc1cccc(OCC(=O)OC2CN3CCC2CC3)c1` (stereo not given), the activation is inactive: 2.6%.
The value for `NC(=O)Nc1ccc([As](=O)(O)O)cc1` was inactive: -3.02%; that for `CCOP1(=S)c2c(C)nn(CCC#N)c2N=C(c2ccc(F)cc2)N1C` (stereo not given) was inactive: 0.517%.
In the case of `CN(C(=O)Cc1ccccc1)[C@@H]1CC[C@]2(CCCO2)C[C@H]1N1CCCC1` it was inactive: -5.98%.
The value for `N#CCCN(C(=O)COC(=O)C(O)(c1ccccc1)c1ccccc1)c1ccc(F)cc1` was inactive: -1.12%; that for `CN(C(=O)Cc1ccc(Cl)c(Cl)c1)[C@H]1CC[C@@]2(CCCO2)C[C@@H]1N1CCCC1` was inactive: -1.89%; that for `CN(C)C(=O)c1cc([N+](=O)[O-])cc2c1-c1c(cc([N+](=O)[O-])cc1[N+](=O)[O-])C2=O` was inactive: -1.3%.
Take `O=[N+]([O-])c1ccc2c(c1)nnn2O`: the activation was inactive: -1.05%.
In the case of `O=P(Nc1nccs1)(c1ccccc1)c1nc2ccccc2s1` (stereo not given) it was inactive: -4.69%.
The value for `O=P(Nc1nccs1)(Oc1ccccc1)Oc1ccccc1` was inactive: 3.01%; that for `CCOP1(=S)c2c(C)nn(CCC#N)c2N=C(c2ccccc2F)N1C` (stereo not given) was inactive: -9.79%.
In the case of `CS(=O)(=O)c1cc([N+](=O)[O-])c2no[n+]([O-])c2c1` it was inactive: -5.53%; in that of `Nc1ccccc1[As](=O)(O)c1ccccc1`, inactive: -1.35%; in that of `O=C(O)COc1ccc([As](=O)(O)O)cc1[N+](=O)[O-]`, inactive: 0.865%.
As for `O=P1(Nc2ncccn2)COc2ccccc2OC1`, the activation was inactive: -5.39%.
The value for `Nc1cccc([As](=O)(O)c2ccccc2)c1` was inactive: 1.74%; that for `O=P1(Nc2ccc(Br)cn2)COc2ccccc2OC1` was inactive: 3.69%; that for `NS(=O)(=O)c1cccc(NC(=O)COC(=O)C(O)(c2ccccc2)c2ccccc2)c1` was inactive: -6.93%.
The value for `O=[As](O)(c1cccs1)c1cccs1` was inactive: 4.54%; that for `Cc1ccc(OCC(=O)OC2CN3CCC2CC3)cc1` (stereo not given) was inactive: 2.91%.
`CC1CCC(C(C)C)C(OP(=O)(Nc2ccccn2)c2ccccc2)C1` (stereo not given): the activation was inactive: -10.9%.
The value for `Cc1ccc(C(=O)OC2CN3CCC2CC3)cc1` (stereo not given) was inactive: 2.12%; that for `Cc1nn(-c2ccccc2)c2c1P(=O)(N1CCOCC1)N(C)C(c1ccccc1)=N2` (stereo not given) was inactive: -3.42%.
The value for `CN(C)C1(CNC(=O)c2ccc(S(C)(=O)=O)cc2)CCCCC1` was inactive: -0.716%.
In the case of `CCCC1OP(=O)(Nc2ccccc2)OCC1CC` (stereo not given) it was inactive: -0.914%.
As to `O=C(/C=C/c1ccccc1)OC1CN2CCC1CC2` (stereo not given), the activation is inactive: 4.46%.
In the case of `COc1ccccc1CNC(=O)COC(=O)C(O)(c1ccccc1)c1ccccc1` it was inactive: 4.84%; in that of `CC(C)/C=N\N=C(\N)N[N+](=O)[O-]`, inactive: -3.19%; in that of `CC1(CBr)Cn2c(nc3ccccc3c2=O)S1` (stereo not given), inactive: 1.02%.
In the case of `CCOP(=O)(NC(=NC(C)c1ccccc1)NC(C)c1ccccc1)OCC` (stereo not given) it was inactive: -16%; in that of `O=P1(Nc2ccccn2)COc2ccccc2OC1`, inactive: -0.852%.
The value for `CCC1=CC2Cc3nc4ccc(Cl)cc4c(N)c3C(C1)C2` (stereo not given) was active: 21.1%; that for `CCOP(=O)(Nc1ccc(C)cn1)OCC` was inactive: 2%; that for `CC(C)(C)C(=O)NC(Sc1ncccn1)C(Cl)(Cl)Cl` (stereo not given) was inactive: -5.3%.
For the compound `Clc1n[nH]nc1-c1nn[nH][15n]1`, the activation is inactive: -0.458%.
The value for `CC(C)C(=O)NC(Sc1ccccc1)C(Cl)(Cl)Cl` (stereo not given) was inactive: -1.15%; that for `O=P(Nc1nccs1)(c1ccccc1)c1ccccc1` was inactive: -0.631%; that for `c1nnnn1CCn1cnnn1` was inactive: -0.0765%.
In the case of `O=[As](O)(c1ccccc1)c1ccc(O)cc1` it was inactive: -7.34%; in that of `O=[N+]([O-])c1ccc(O)c(/C=N/Nc2ccc([N+](=O)[O-])cc2[N+](=O)[O-])c1`, inactive: -3.91%.
The value for `O=[N+]([O-])c1ncn(CCn2cnc([N+](=O)[O-])n2)n1` was inactive: -5.08%; that for `CC(=O)NC(SC(=S)N(C)C)C(Cl)(Cl)Cl` (stereo not given) was inactive: -0.189%.
`O=C(OC1CN2CCC1CC2)c1cccc(Cl)c1` (stereo not given): the activation was inactive: -7.42%.
For `Nc1ccc([As](=O)(O)c2ccc([N+](=O)[O-])cc2)cc1`, the activation is inactive: -6.48%.
In the case of `C(Cc1nn[nH]n1)Cc1nn[nH]n1` it was inactive: 7.93%.
In the case of `O=P(Nc1ccccn1)(c1ccc(Br)cc1)c1ccc(Br)cc1` it was inactive: -7.42%.
The value for `CN(C)C1(CNC(=O)c2ccc(Cl)c(S(N)(=O)=O)c2)CCCCC1` was inactive: 4.17%; that for `COc1ccc(N)c([N+](=O)[O-])c1[N+](=O)[O-]` was inactive: -5.06%; that for `C[C@H]1OP(=O)(Oc2ccccc2)[C@H](O)[C@H](O)[C@H]1N=[N+]=[N-]` (stereo not given in full) was inactive: 2.11%.
Consider `O=P(Nc1nc2ccccc2s1)(c1ccccc1)c1ccccc1`, for which the activation was inactive: -7.33%.
In the case of `CCC(=O)N1C2C3N(C(=O)CC)C1C1N(C(=O)CC)C(C(N1C(=O)CC)N3C(=O)CC)N2C(=O)CC` it was inactive: -0.682%.
On to `O=C(OC1CN2CCC1CC2)c1ccccc1` (stereo not given), for which the activation was inactive: 4.5%.
The value for `Cc1ccc(OP(=O)(Nc2ccccn2)Oc2ccc(C)cc2)cc1` was inactive: 0.939%.
The value for `CC(=O)NC(SC(=S)N(CC(C)C)CC(C)C)C(Cl)(Cl)Cl` (stereo not given) was inactive: 0.758%.
